{
  "sequences": {"note": "By UniProt entry, the sequences of proteins in these tests, tags left out.", "UniProt P08173, whole entry": "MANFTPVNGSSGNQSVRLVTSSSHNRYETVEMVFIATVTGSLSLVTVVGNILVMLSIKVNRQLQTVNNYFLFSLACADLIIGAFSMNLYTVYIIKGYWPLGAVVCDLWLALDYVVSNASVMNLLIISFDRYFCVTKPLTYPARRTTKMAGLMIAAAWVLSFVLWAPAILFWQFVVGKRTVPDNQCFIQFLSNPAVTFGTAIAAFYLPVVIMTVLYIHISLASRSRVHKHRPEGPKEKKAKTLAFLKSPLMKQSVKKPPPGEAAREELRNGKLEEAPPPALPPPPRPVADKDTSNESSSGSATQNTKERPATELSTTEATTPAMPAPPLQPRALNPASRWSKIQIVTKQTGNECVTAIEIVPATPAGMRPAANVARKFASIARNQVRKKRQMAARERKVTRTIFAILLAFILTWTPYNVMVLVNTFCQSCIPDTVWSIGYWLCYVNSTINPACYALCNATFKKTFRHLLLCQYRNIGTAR", "UniProt P08485, whole entry": "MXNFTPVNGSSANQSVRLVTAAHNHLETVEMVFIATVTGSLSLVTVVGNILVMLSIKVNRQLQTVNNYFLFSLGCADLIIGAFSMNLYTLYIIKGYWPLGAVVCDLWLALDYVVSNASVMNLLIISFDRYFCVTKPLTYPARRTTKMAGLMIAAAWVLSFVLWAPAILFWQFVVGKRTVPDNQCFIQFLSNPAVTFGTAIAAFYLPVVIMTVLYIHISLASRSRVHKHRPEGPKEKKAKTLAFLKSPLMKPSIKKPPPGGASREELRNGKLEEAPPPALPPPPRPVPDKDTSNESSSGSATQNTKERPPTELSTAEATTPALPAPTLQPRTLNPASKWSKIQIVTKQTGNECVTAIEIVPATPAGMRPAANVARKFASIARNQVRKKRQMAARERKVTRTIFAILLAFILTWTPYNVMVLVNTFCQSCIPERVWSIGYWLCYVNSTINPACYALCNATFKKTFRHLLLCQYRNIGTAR"},
  "source": "patent US20260384432A1",
  "about": "“SUBSTITUTED DIHYDROPYRROLO[3,4-D]PYRIMIDINE COMPOUNDS AND THEIR USE IN TREATING MEDICAL CONDITIONS” (published 2026)",
  "key": {"Human M4 (hM4 receptor)": {"target": "Human M4 (hM4 receptor) (Homo sapiens, UniProt P08173)", "assay": "Human M4 PAM pERK assay (CHO cells expressing hM4, TR-FRET)", "conditions": "read-out: Human M4 PAM pERK EC50, PAM mode, EC20 of acetylcholine (10 nM final), 5 mins at 37 °C", "procedure": "(§1) Part I—Experimental Procedures for Human and Rat M4 PAM pERK Assay\n(§2) Chinese hamster ovary (CHO) cells expressing either hM4 or rM4 receptors were frozen in assay ready vials (5×10^6 cells/vial) after bulking-up in culture. The day before an assay, vial(s) were thawed and cells seeded in 384 well white proxiplates at 1000/well for hM4 cells and at 2000/well for rM4 cells, in 10 µL of growth media (Hams/F 12 with glutainax and 1000 FCS) and incubated overnight at 37 °C/500 CO2.\n(§3) On the following morning, the growth media was removed by ‘flicking out’ over a bin, patting the inverted plate onto tissue, and then replacing with 10 μL of wash media (Hams/F 12 with glutamax and 8 mM HEPES, NB: serum free). Then, the wash media was removed in the same way and replaced with 8 μL/well of the serum free media. Plates were then re-incubated for a further 4 hours at 37 °C/5% CO2.\n(§4) Compounds for testing were solubilized to 10 mM in DMSO and compound addition plates, consisting of ten-point concentration response curves (CRC) in duplicate points (10 μM top concentration, ½ log dilution series), were prepared by acoustic dispensing and the compound management group.\n(§5) After the 4-hour incubation in serum free media, a 4 μL aliquot of the 3× compound solution containing an EC2O of acetylcholine (10 nM final concentration) was added to the cell plate using a 384 well plate to plate transfer. Then, the plate lid was replaced, and the cells incubated for 5 mins at 37 °C/5% CO2. Following this final incubation, all cellular processes were stopped by the addition of 4 μL/well of lysis and blocking buffer and plates were incubated for 30 minutes at RT on an orbital shaker (gentle setting). Then, a final addition of 4 μL/well of antibody detection mix, containing both the Europium-Cryptate (donor) and d2 (acceptor) tagged detection components, was added followed by a further 2-hour incubation at RT, and then the plate was read using a TR-FRET (time resolved fluorescence resonance energy transfer) based protocol."}, "Rat M4 (rM4 receptor)": {"target": "Rat M4 (rM4 receptor) (Rattus norvegicus, UniProt P08485)", "assay": "Rat M4 PAM pERK assay (CHO cells expressing rM4, TR-FRET)", "conditions": "read-out: Rat M4 PAM pERK EC50, PAM mode, EC20 of acetylcholine (10 nM final), 5 mins at 37 °C", "procedure": "as §1, §2, §3, §4, §5"}, "Human M4 receptor": {"target": "Human M4 receptor (Homo sapiens, UniProt P08173)", "assay": "M4 GTPγS PAM assay (35S-GTP binding to membranes of CHO-K1 cells stably expressing human M4 receptor)", "conditions": "read-out: Human M4 PAM GTPγS EC50, PAM mode, EC20 acetylcholine (40 nM for human M4), GDP 0.1 uM, 1 hour at room temperature", "procedure": "Part II—Experimental Procedures for M4 GTPyS PAM Assay\nThe M4 GTPyS PAM method was used. Membranes were prepared for GTPgS binding assays from CHO-K1 cells stably expressing human M4 receptor. Briefly, cells were grown in 5-layer cell culture flasks. Cells were washed with 50 mL of PBS and then dissociated with 0.05% trypsin. Dissociated cells were then collected by centrifugation at 650×g for 8 minutes at 4 °C. Pellets were washed again in PBS by centrifugation and resuspended in 30 mL of 20 mM HEPES, 10 mM EDTA, pH 7.4. After sitting on ice for 30 min, membranes were collected by centrifugation at 50000×g for 15′ at 4 °C, resuspended in 30 mL of 20 mM HEPES, 0.1 mM EDTA, pH 7.4 and collected again by centrifugation. Pellets were then washed twice by centrifugation in 30 mL of 20 mM HEPES, pH 7.4, and stored at −80 °C until the day of the assay. On the day of the assay, pellets were thawed on ice and resuspended in 1 mL of 20 mM HEPES, pH 7.4, 10 mM MgCl2, 100 mM NaCl using dounce homogenization. Membrane protein concentration is determined by BCA protein assay (Promega, Madison, WI) according to Promega guidelines.\nOn the day of the assay, serial dilutions of test PAM compounds were brought up in assay buffer (20 mM HEPES, 10 mM MgCl2, 100 mM NaCl) at 4× final assay concentration. […] of membrane homogenates (containing 5 mg of membrane protein) were prepared in assay buffer supplemented with GDP at 4× final assay concentration (final assay concentration of GDP is 5 uM for M2 and 0.1 uM for M4) and dispensed into 96 well polypropylene, U-bottom Greiner plates. 25 ml of vehicle or test PAM compound at 4× of final assay concentration diluted in the assay buffer were added to membrane and plates are incubated for 10-15 minutes at room temperature with gentle shaking. Then, […] of EC20 acetylcholine in assay buffer at 4× final assay concentration was added to assay plates (EC20 final assay concentrations was 40 nM for human M4).\nPlates were then incubated, with shaking, for an additional 10-15 minutes. 25 mL of 0.4 nM ^35S-GTP (Perkin Elmer, Waltham, MA) in assay buffer was added to assay mixtures. The binding reaction is left on the shaker for 1 hour at room temperature. Membranes in assay reactions were then transferred to GF/C filter plates (Unifilter, Perkin Elmer) and washed three times using a FilterMate Harvester (Perkin Elmer) with cold assay buffer containing no GDP. Filter plates were then dried at 40 °C overnight followed by the addition of […] of Beta Plate Scintillation liquid. Plates are top and bottom sealed before being read on TopCount scintillation counter (Perkin Elmer, Waltham, MA)."}},
  "note": "pEC50: −log10 of the molar value.",
  "data": [
    {"smiles": "COc1nc(C#N)nc2c1C(C)N(C(=O)CC1CC1c1cc(F)cc(F)c1)C2", "note": "(centres unmarked)", "values": [
      {"measurement": "pEC50", "setting": "Human M4 (hM4 receptor)", "value": "> 7.00"},
      {"measurement": "pEC50", "setting": "Rat M4 (rM4 receptor)", "value": "6.30 to 7.00"},
      {"measurement": "pEC50", "setting": "Human M4 receptor", "value": "> 7.00"}
    ]},
    {"smiles": "COc1nc(C#N)nc2c1C(C)N(C(=O)CC1CC1c1ccnc(C(F)(F)F)c1)C2", "note": "(centres unmarked)", "values": [
      {"measurement": "pEC50", "setting": "Human M4 (hM4 receptor)", "value": "> 7.00"},
      {"measurement": "pEC50", "setting": "Rat M4 (rM4 receptor)", "value": "5.70 to 6.30"},
      {"measurement": "pEC50", "setting": "Human M4 receptor", "value": "6.30 to 7.00"}
    ]},
    {"smiles": "Cc1nc2c(c(OC3CC3)n1)CN(C(=O)CC1CC1c1cccnc1)C2", "note": "(single isomer, unassigned)", "values": [
      {"measurement": "pEC50", "setting": "Human M4 (hM4 receptor)", "value": "< 5.70"},
      {"measurement": "pEC50", "setting": "Rat M4 (rM4 receptor)", "value": "< 5.70"},
      {"measurement": "pEC50", "setting": "Human M4 receptor", "value": "< 5.70"}
    ]},
    {"smiles": "Cc1nc2c(c(NC3CC3)n1)CN(C(=O)CC1CC1c1cccnc1)C2", "note": "(single isomer, unassigned) [I-3]", "values": [
      {"measurement": "pEC50", "setting": "Human M4 (hM4 receptor)", "value": "< 5.70"}
    ]},
    {"smiles": "Cc1nc2c(c(NC3CC3)n1)CN(C(=O)CC1CC1c1cccnc1)C2", "note": "(single isomer, unassigned) [I-4]", "values": [
      {"measurement": "pEC50", "setting": "Human M4 (hM4 receptor)", "value": "5.70 to 6.30"},
      {"measurement": "pEC50", "setting": "Rat M4 (rM4 receptor)", "value": "< 5.70"}
    ]},
    {"smiles": "COc1nc(C)nc2c1CN(C(=O)CC1CC1c1cccnc1)C2", "note": "(single isomer, unassigned) [I-5]", "values": [
      {"measurement": "pEC50", "setting": "Human M4 (hM4 receptor)", "value": "< 5.70"},
      {"measurement": "pEC50", "setting": "Human M4 receptor", "value": "< 5.70"}
    ]},
    {"smiles": "COc1nc(C)nc2c1CN(C(=O)CC1CC1c1cccnc1)C2", "note": "(single isomer, unassigned) [I-6]", "values": [
      {"measurement": "pEC50", "setting": "Human M4 (hM4 receptor)", "value": "6.30 to 7.00"},
      {"measurement": "pEC50", "setting": "Rat M4 (rM4 receptor)", "value": "< 5.70"},
      {"measurement": "pEC50", "setting": "Human M4 receptor", "value": "< 5.70"}
    ]},
    {"smiles": "COc1nc(C#N)nc2c1C(C)N(C(=O)CC1CC1c1cc(F)cc(F)c1)C2", "note": "(single isomer, unassigned) [I-8]", "values": [
      {"measurement": "pEC50", "setting": "Human M4 (hM4 receptor)", "value": "< 5.70"},
      {"measurement": "pEC50", "setting": "Rat M4 (rM4 receptor)", "value": "< 5.70"},
      {"measurement": "pEC50", "setting": "Human M4 receptor", "value": "< 5.70"}
    ]},
    {"smiles": "COc1nc(C#N)nc2c1C(C)N(C(=O)CC1CC1c1cc(F)cc(F)c1)C2", "note": "(single isomer, unassigned) [I-9]", "values": [
      {"measurement": "pEC50", "setting": "Human M4 (hM4 receptor)", "value": "> 7.00"},
      {"measurement": "pEC50", "setting": "Rat M4 (rM4 receptor)", "value": "6.30 to 7.00"},
      {"measurement": "pEC50", "setting": "Human M4 receptor", "value": "> 7.00"}
    ]},
    {"smiles": "COc1nc(C#N)nc2c1C(C)N(C(=O)CC1CC1c1ccnc(C(F)(F)F)c1)C2", "note": "(single isomer, unassigned) [I-11]", "values": [
      {"measurement": "pEC50", "setting": "Human M4 (hM4 receptor)", "value": "< 5.70"},
      {"measurement": "pEC50", "setting": "Rat M4 (rM4 receptor)", "value": "< 5.70"},
      {"measurement": "pEC50", "setting": "Human M4 receptor", "value": "5.70 to 6.30"}
    ]},
    {"smiles": "COc1nc(C#N)nc2c1C(C)N(C(=O)CC1CC1c1ccnc(C(F)(F)F)c1)C2", "note": "(single isomer, unassigned) [I-12]", "values": [
      {"measurement": "pEC50", "setting": "Human M4 (hM4 receptor)", "value": "> 7.00"},
      {"measurement": "pEC50", "setting": "Rat M4 (rM4 receptor)", "value": "6.30 to 7.00"},
      {"measurement": "pEC50", "setting": "Human M4 receptor", "value": "> 7.00"}
    ]}
  ]
}
